# Values of other authors in patent US4866036A, “Dipeptidyl 5-0,6-0-acyl-2-amino-2-deoxy-D-glucofuranose compositions and methods of use in aids-immunocompromised human hosts” (priority 1987, dated 1989).
# Conditions: human, in vivo
substance,measurement,value
IL-2: Protein made by white blood cells that mediates production of interferon,clinical effect in AIDS or ARC patients,not encouraging
